According to ChEMBL document CHEMBL5104188, “Discovery and Characterization of Synthesized and FDA-Approved Inhibitors of Clostridial and Bacillary Collagenases” (J Med Chem, 2022):

Target: Collagenase ColQ1 (Bacillus cereus) (UniProt B9J3S4)
Assay: Inhibition of full length Bacillus cereus ColQ1 assessed as reduction in Col 1 cleavage at 1.5 to 12.5 uM incubated for 3 hrs by SDS-PAGE analysis
Conditions: dose 1.5-12.5 µM

**Q.** How did the inhibition turn out when `CC(C)CC(C(=O)NO)C(=O)NCCn1cc(CSc2ccccc2)nn1` (stereo not drawn) was run?
**A.** The inhibition was “Active”.

**Q.** Which inhibition does the source give for `O=P(O)(O)c1nc2ccc(-c3ccc(Cl)cc3)cc2nc1P(=O)(O)O` here?
**A.** The inhibition was “Active”.

**Q.** `Cc1ccc2nc(P(=O)(O)O)c(P(=O)(O)O)nc2c1` was tested. Which inhibition did it give?
**A.** The inhibition was “Active”.

**Q.** How did the inhibition turn out when `O=C(Nc1ccc(Cl)c(Cl)c1)c1ccc2nc(P(=O)(O)O)c(P(=O)(O)O)nc2c1` was run?
**A.** The inhibition was “Active”.

**Q.** With `O=P(O)(O)c1nc2ccc(Cl)cc2nc1P(=O)(O)O` as the compound, how does the inhibition read?
**A.** Its inhibition is “Active”.

**Q.** With `CC(=O)Nc1cccc(OCc2cn(CCNC(=O)C(CC(C)C)C(=O)NO)nn2)c1` (stereo not drawn) as the compound, how does the inhibition read?
**A.** The inhibition was “Active”.

**Q.** For `CC(=O)Nc1ccc(OCc2cn(CCNC(=O)C(CC(C)C)C(=O)NO)nn2)cc1` (stereo not drawn), which inhibition is on record?
**A.** The inhibition was “Active”.

**Q.** For `CC(C)CC(C(=O)NO)C(=O)NCCn1cc(COc2ccccc2)nn1` (stereo not drawn), which inhibition is on record?
**A.** Its inhibition is “Active”.

Active and inactive are the calls of the source. No cut-off for these calls is given here.
